In US11104700B2, “Oligonucleotides” (OXFORD UNIVERSITY INNOVATION LIMITED, priority 2017, dated 2021):

System: RNA target: 5′-rG CUA GAG AAG UC G (SEQ ID NO: 40)
Assay: UV thermal melting, two triazole linkages (MeC-MeC steps), RNA target
Settings: Table 4; for Tm, RNA target: 10 mM phosphate, 200 mM NaCl, pH 7.0, 3.0 μM each strand; for ΔTm/mod, RNA target: relative to unmodified ON35

Substance | Tm, RNA target | ΔTm/mod, RNA target
5′-dCGA^MeCt^MeCTCT^MeCt^MeCAGC | 59.1 °C | -5.5 °C/modification
5′-dCGA^MeCt^MeC^LTCT^MeCt^MeC^LAGC | 67.1 °C | -1.5 °C/modification
5′-dCGA^MeCp^MeCTCT^MeCp^MeCAGC | 70.1 °C | 
5′-dCGA^MeCp^MeC^LTCT^MeCp^MeC^LAGC | >75 °C | >+2.5 °C/modification
